{"sequences": {"note": "Amino acid sequences for entries named in this document (tags omitted). A change or cut given only in a name is not applied to a line headed by its entry.", "UniProt Q12809": "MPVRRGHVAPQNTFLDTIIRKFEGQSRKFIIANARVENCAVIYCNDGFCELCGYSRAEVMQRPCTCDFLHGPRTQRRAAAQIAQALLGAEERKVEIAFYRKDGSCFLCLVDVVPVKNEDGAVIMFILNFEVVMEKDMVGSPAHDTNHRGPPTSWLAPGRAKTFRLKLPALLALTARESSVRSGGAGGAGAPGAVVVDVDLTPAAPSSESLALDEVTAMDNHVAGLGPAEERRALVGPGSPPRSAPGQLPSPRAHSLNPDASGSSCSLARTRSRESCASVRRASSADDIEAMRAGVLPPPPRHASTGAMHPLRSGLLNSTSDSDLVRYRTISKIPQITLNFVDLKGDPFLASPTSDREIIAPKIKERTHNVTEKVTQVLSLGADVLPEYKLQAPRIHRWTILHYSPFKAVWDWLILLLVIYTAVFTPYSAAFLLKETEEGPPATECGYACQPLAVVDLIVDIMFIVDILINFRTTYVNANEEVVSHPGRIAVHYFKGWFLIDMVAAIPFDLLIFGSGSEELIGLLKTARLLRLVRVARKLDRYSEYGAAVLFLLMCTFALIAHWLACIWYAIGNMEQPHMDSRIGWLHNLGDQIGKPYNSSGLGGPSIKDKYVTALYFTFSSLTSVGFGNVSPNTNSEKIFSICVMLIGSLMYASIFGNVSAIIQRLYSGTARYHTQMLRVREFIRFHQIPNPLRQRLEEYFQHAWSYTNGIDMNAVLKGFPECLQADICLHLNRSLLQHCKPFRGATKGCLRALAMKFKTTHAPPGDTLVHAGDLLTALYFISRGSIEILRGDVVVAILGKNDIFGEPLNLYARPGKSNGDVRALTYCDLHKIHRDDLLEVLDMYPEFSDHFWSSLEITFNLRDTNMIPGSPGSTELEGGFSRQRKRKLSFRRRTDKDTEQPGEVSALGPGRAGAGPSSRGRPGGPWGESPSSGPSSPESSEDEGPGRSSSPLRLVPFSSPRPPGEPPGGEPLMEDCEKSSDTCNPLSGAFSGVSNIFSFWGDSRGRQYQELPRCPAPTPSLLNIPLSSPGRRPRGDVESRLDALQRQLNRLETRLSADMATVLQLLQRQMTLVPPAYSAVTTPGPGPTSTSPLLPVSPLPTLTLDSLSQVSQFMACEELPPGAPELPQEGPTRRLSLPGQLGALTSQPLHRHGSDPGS"}, "source": "patent US11813252B2", "about": "(dated 2023)", "origin": "cited, not measured here", "target": "hERG K+ channel (Homo sapiens, UniProt Q12809)", "details": "CDER pharmacological review NDA 22-068, cited from earlier work", "note": "Values joined by “and” are separate entries in the source; they are usually repeats but may differ in a detail not shown here. Identical values can stand only once. Like-named read-outs stand apart in the source and are kept apart here."}
{"smiles": "Cc1cn(-c2cc(NC(=O)c3ccc(C)c(Nc4nccc(-c5cccnc5)n4)c3)cc(C(F)(F)F)c2)cn1", "note": "[Nilotinib, nilotinib]", "values": [{"measurement": "percentage inhibition of hERG current", "setting": "0.03 μM", "value": "14.9 ± 2", "unit": "%"}, {"measurement": "percentage inhibition of hERG current", "setting": "0.1 μM", "value": "43.9 ± 0.7", "unit": "%"}, {"measurement": "percentage inhibition of hERG current", "setting": "0.3 μM", "value": "70.4 ± 2.5", "unit": "%"}, {"measurement": "percentage inhibition of hERG current", "setting": "1 μM", "value": "~90% and 89.7 ± 1.6%"}]}
